# Patent US20120121591A1 (priority 2009, published 2012)
# Protein sequences, listed by entry. Tags and fused reporters are not part of them.
# UniProt P22001, whole entry: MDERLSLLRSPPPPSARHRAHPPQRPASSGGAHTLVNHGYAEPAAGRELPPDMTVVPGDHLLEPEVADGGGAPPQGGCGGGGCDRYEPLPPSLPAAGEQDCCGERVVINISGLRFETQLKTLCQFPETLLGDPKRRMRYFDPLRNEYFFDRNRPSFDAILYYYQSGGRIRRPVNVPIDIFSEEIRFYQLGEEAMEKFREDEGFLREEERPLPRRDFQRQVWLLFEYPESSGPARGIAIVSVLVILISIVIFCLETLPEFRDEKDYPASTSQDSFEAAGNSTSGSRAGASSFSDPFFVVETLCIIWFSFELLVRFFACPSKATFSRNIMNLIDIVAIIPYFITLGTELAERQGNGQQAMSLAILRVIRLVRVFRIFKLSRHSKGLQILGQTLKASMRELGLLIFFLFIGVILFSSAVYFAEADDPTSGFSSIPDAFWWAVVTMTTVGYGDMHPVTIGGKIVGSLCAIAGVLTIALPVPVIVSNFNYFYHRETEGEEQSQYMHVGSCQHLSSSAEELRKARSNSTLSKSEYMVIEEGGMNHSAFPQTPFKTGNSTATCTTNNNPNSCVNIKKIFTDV
# “And” between values parts separate entries of the source, which are not always exact repeats. Equal values may be shown once.
# How the values were obtained:
# [1] = test system: IFN-g secretion from T cells in human whole blood; type: cell-based; details: read-out: WB (IFNg) IC50 (nM, Avg)
# [2] = test system: IL-2 secretion from T cells in human whole blood; type: cell-based; details: read-out: WB (IL-2) IC50 (nM, Avg)
# hKv1.3 = hKv1.3 (Homo sapiens, UniProt P22001); experiment: cell-based; details: Kv1.3 (IWQ) IC50 (nM, Avg)
SMILES,IC50 [1],IC50 [2],IC50 (hKv1.3)
CC[C@H](C)[C@@H]1NC(=O)[C@@H](NC(=O)[C@H](CO)NC(=O)[C@@H](N)CCCNC(=N)N)CSSC[C@@H](C(N)=O)NC(=O)[C@H]([C@@H](C)O)NC(=O)CNC(=O)[C@@H]2CSSC[C@@H]3NC(=O)[C@H](CCCCN)NC(=O)[C@H](Cc4ccccc4)NC(=O)[C@H](C)NC(=O)[C@H]([C@@H](C)O)NC(=O)[C@H](CSSC[C@H](NC(=O)[C@H](Cc4ccccc4)NC(=O)[C@H](CO)NC(=O)[C@H](CC(C)C)NC(=O)[C@H](CCCNC(=N)N)NC(=O)[C@H](Cc4ccc(O)cc4)NC(=O)[C@H](CCCCN)NC(=O)[C@H](CCSC)NC(=O)[C@H](CO)NC(=O)[C@H](Cc4c[nH]cn4)NC(=O)[C@H](CCCCN)NC3=O)C(=O)N[C@@H](CCCNC(=N)N)C(=O)N[C@@H](CCCCN)C(=O)N[C@@H]([C@@H](C)O)C(=O)N2)NC(=O)[C@H](CCCNC(=N)N)NC(=O)[C@H](CO)NC(=O)[C@H](CCCCN)NC(=O)[C@@H]2CCCN2C(=O)[C@H]([C@@H](C)CC)NC(=O)[C@H]([C@@H](C)O)NC(=O)[C@H](CC(=O)O)NC1=O [[Lys16]ShK-amide],0.278 nM,0.223 nM,0.2 nM and 0.174 nM
CC[C@H](C)[C@@H]1NC(=O)[C@@H](NC(=O)[C@H](CO)NC(=O)[C@@H](N)CCCNC(=N)N)CSSC[C@@H](C(=O)O)NC(=O)[C@H]([C@@H](C)O)NC(=O)CNC(=O)[C@@H]2CSSC[C@@H]3NC(=O)[C@H](CCC(N)=O)NC(=O)[C@H](Cc4ccccc4)NC(=O)[C@H](C)NC(=O)[C@H]([C@@H](C)O)NC(=O)[C@H](CSSC[C@H](NC(=O)[C@H](Cc4ccccc4)NC(=O)[C@H](CO)NC(=O)[C@H](CC(C)C)NC(=O)[C@H](CCC(=O)O)NC(=O)[C@H](Cc4ccc(O)cc4)NC(=O)[C@H](CCCCN)NC(=O)[C@H](CCSC)NC(=O)[C@H](CO)NC(=O)[C@H](Cc4c[nH]cn4)NC(=O)[C@H](CCCCN)NC3=O)C(=O)N[C@@H](CCCNC(=N)N)C(=O)N[C@@H](CCCCN)C(=O)N[C@@H]([C@@H](C)O)C(=O)N2)NC(=O)[C@H](CCCNC(=N)N)NC(=O)[C@H](CO)NC(=O)[C@H](CCCCN)NC(=O)[C@@H]2CCCN2C(=O)[C@H]([C@@H](C)CC)NC(=O)[C@H]([C@@H](C)O)NC(=O)[C@H](CC(=O)O)NC1=O [[Glu24]ShK],–,1.11 nM,0.26 nM
CC[C@H](C)[C@@H]1NC(=O)[C@@H](NC(=O)[C@H](CO)NC(=O)[C@@H](N)CCCNC(=N)N)CSSC[C@@H](C(=O)O)NC(=O)[C@H]([C@@H](C)O)NC(=O)CNC(=O)[C@@H]2CSSC[C@@H]3NC(=O)[C@H](CCC(N)=O)NC(=O)[C@H](Cc4ccccc4)NC(=O)[C@H](C)NC(=O)[C@H]([C@@H](C)O)NC(=O)[C@H](CSSC[C@H](NC(=O)[C@H](Cc4ccccc4)NC(=O)[C@H](CO)NC(=O)[C@H](CC(C)C)NC(=O)[C@H](CCCNC(=N)N)NC(=O)[C@H](Cc4ccc(O)cc4)NC(=O)[C@H](CCCCN)NC(=O)[C@H](CCSC)NC(=O)[C@H](CO)NC(=O)[C@H](Cc4c[nH]cn4)NC(=O)[C@H](CCCCN)NC3=O)C(=O)N[C@@H](CCCNC(=N)N)C(=O)N[C@@H](CCCCN)C(=O)N[C@@H]([C@@H](C)O)C(=O)N2)NC(=O)[C@H](CCCCN)NC(=O)[C@H](CO)NC(=O)[C@H](CCCCN)NC(=O)[C@@H]2CCCN2C(=O)[C@H]([C@@H](C)CC)NC(=O)[C@H]([C@@H](C)O)NC(=O)[C@H](CC(=O)O)NC1=O [[Lys11]ShK],0.252 nM,–,0.137 nM
CC[C@H](C)[C@@H]1NC(=O)[C@@H](NC(=O)[C@H](CO)NC(=O)[C@@H](N)CCCNC(=N)N)CSSC[C@@H](C(=O)O)NC(=O)[C@H]([C@@H](C)O)NC(=O)CNC(=O)[C@@H]2CSSC[C@@H]3NC(=O)[C@H](CCC(N)=O)NC(=O)[C@H](Cc4ccccc4)NC(=O)[C@H](C)NC(=O)[C@H]([C@@H](C)O)NC(=O)[C@H](CSSC[C@H](NC(=O)[C@H](Cc4ccccc4)NC(=O)[C@H](CO)NC(=O)[C@H](CC(C)C)NC(=O)[C@H](CCCNC(=N)N)NC(=O)[C@H](Cc4ccc(O)cc4)NC(=O)[C@H](CCCCN)NC(=O)[C@H](CCSC)NC(=O)[C@H](CO)NC(=O)[C@H](Cc4c[nH]cn4)NC(=O)[C@H](CCCCN)NC3=O)C(=O)N[C@@H](CCCNC(=N)N)C(=O)N[C@@H](CCCCN)C(=O)N[C@@H]([C@@H](C)O)C(=O)N2)NC(=O)[C@H](CCCNC(=N)N)NC(=O)[C@H](CO)NC(=O)[C@H](CCCCN)NC(=O)[C@H](CCCCN)NC(=O)[C@H]([C@@H](C)CC)NC(=O)[C@H]([C@@H](C)O)NC(=O)[C@H](CC(=O)O)NC1=O [[Lys8]ShK],–,0.154 nM,0.083 nM
CC[C@H](C)[C@@H]1NC(=O)[C@@H](NC(=O)[C@H](CO)NC(=O)[C@@H](N)CCCNC(=N)N)CSSC[C@@H](C(=O)O)NC(=O)[C@H]([C@@H](C)O)NC(=O)[C@H](Cc2cccc3ccccc23)NC(=O)[C@@H]2CSSC[C@@H]3NC(=O)[C@H](CCC(N)=O)NC(=O)[C@H](Cc4ccccc4)NC(=O)[C@H](C)NC(=O)[C@H]([C@@H](C)O)NC(=O)[C@H](CSSC[C@H](NC(=O)[C@H](Cc4ccccc4)NC(=O)[C@H](CO)NC(=O)[C@H](CC(C)C)NC(=O)[C@H](CCCNC(=N)N)NC(=O)[C@H](Cc4ccc(O)cc4)NC(=O)[C@H](CCCCN)NC(=O)[C@H](CCSC)NC(=O)[C@H](CO)NC(=O)[C@H](Cc4c[nH]cn4)NC(=O)[C@H](CCCCN)NC3=O)C(=O)N[C@@H](CCCNC(=N)N)C(=O)N[C@@H](CCCCN)C(=O)N[C@@H]([C@@H](C)O)C(=O)N2)NC(=O)[C@H](CCCNC(=N)N)NC(=O)[C@H](CO)NC(=O)[C@H](CCCCN)NC(=O)[C@@H]2CCCN2C(=O)[C@H]([C@@H](C)CC)NC(=O)[C@H]([C@@H](C)O)NC(=O)[C@H](CC(=O)O)NC1=O [[1-Nal33]ShK],–,0.439 nM,–
CC[C@H](C)[C@@H]1NC(=O)[C@@H](NC(=O)[C@H](CO)NC(=O)[C@@H](N)CCCNC(=N)N)CSSC[C@@H](C(=O)O)NC(=O)[C@H]([C@@H](C)O)NC(=O)[C@H](CCCCN)NC(=O)[C@@H]2CSSC[C@@H]3NC(=O)[C@H](CCC(N)=O)NC(=O)[C@H](Cc4ccccc4)NC(=O)[C@H](C)NC(=O)[C@H]([C@@H](C)O)NC(=O)[C@H](CSSC[C@H](NC(=O)[C@H](Cc4ccccc4)NC(=O)[C@H](CO)NC(=O)[C@H](CC(C)C)NC(=O)[C@H](CCCNC(=N)N)NC(=O)[C@H](Cc4ccc(O)cc4)NC(=O)[C@H](CCCCN)NC(=O)[C@H](CCSC)NC(=O)[C@H](CO)NC(=O)[C@H](Cc4c[nH]cn4)NC(=O)[C@H](CCCCN)NC3=O)C(=O)N[C@@H](CCCNC(=N)N)C(=O)N[C@@H](CCCCN)C(=O)N[C@@H]([C@@H](C)O)C(=O)N2)NC(=O)[C@H](CCCNC(=N)N)NC(=O)[C@H](CO)NC(=O)[C@H](CCCCN)NC(=O)[C@@H]2CCCN2C(=O)[C@H]([C@@H](C)CC)NC(=O)[C@H]([C@@H](C)O)NC(=O)[C@H](CC(=O)O)NC1=O [[Lys33]ShK],–,0.218 nM,0.122 nM
CC[C@H](C)[C@@H]1NC(=O)[C@@H](NC(=O)[C@H](CO)NC(=O)[C@@H](N)CCCNC(=N)N)CSSC[C@@H](C(=O)O)NC(=O)[C@H]([C@@H](C)O)NC(=O)CNC(=O)[C@@H]2CSSC[C@@H]3NC(=O)[C@H](CCC(N)=O)NC(=O)[C@H](Cc4ccccc4)NC(=O)[C@H](C)NC(=O)[C@H](C)NC(=O)[C@H](CSSC[C@H](NC(=O)[C@H](Cc4ccccc4)NC(=O)[C@H](CO)NC(=O)[C@H](CC(C)C)NC(=O)[C@H](CCCNC(=N)N)NC(=O)[C@H](Cc4ccc(O)cc4)NC(=O)[C@H](CCCCN)NC(=O)[C@H](CCSC)NC(=O)[C@H](CO)NC(=O)[C@H](Cc4cnc[nH]4)NC(=O)[C@H](CCCCN)NC3=O)C(=O)N[C@@H](CCCNC(=N)N)C(=O)N[C@@H](CCCCN)C(=O)N[C@@H]([C@@H](C)O)C(=O)N2)NC(=O)[C@H](CCCNC(=N)N)NC(=O)[C@H](CO)NC(=O)[C@H](CCCCN)NC(=O)[C@@H]2CCCN2C(=O)[C@H]([C@@H](C)CC)NC(=O)[C@H]([C@@H](C)O)NC(=O)[C@H](CC(=O)O)NC1=O [[Ala13]ShK],–,–,0.156 nM
CC[C@H](C)[C@@H]1NC(=O)[C@@H](NC(=O)[C@H](CO)NC(=O)[C@@H](N)CCCNC(=N)N)CSSC[C@@H](C(=O)O)NC(=O)[C@H]([C@@H](C)O)NC(=O)CNC(=O)[C@@H]2CSSC[C@@H]3NC(=O)[C@H](CCC(N)=O)NC(=O)[C@H](Cc4ccccc4)NC(=O)[C@H](C)NC(=O)[C@H]([C@@H](C)O)NC(=O)[C@H](CSSC[C@H](NC(=O)[C@H](Cc4ccccc4)NC(=O)[C@H](CO)NC(=O)[C@H](CC(C)C)NC(=O)[C@H](CCCNC(=N)N)NC(=O)[C@H](Cc4ccc(O)cc4)NC(=O)[C@H](CCCCN)NC(=O)[C@H](CCSC)NC(=O)[C@H](CO)NC(=O)[C@H](Cc4c[nH]cn4)NC(=O)[C@H](CCCCN)NC3=O)C(=O)N[C@@H](CCCNC(=N)N)C(=O)N[C@@H](CCCCN)C(=O)N[C@@H]([C@@H](C)O)C(=O)N2)NC(=O)[C@H](CCCNC(=N)N)NC(=O)[C@H](CO)NC(=O)[C@H](Cc2cccc3ccccc23)NC(=O)[C@@H]2CCCN2C(=O)[C@H]([C@@H](C)CC)NC(=O)[C@H]([C@@H](C)O)NC(=O)[C@H](CC(=O)O)NC1=O [[1-Nal9]ShK],0.666 nM,–,0.473 nM
CC[C@H](C)[C@@H]1NC(=O)[C@@H](NC(=O)[C@H](CO)NC(=O)[C@@H](N)CCCNC(=N)N)CSSC[C@@H](C(=O)O)NC(=O)[C@H]([C@@H](C)O)NC(=O)CNC(=O)[C@@H]2CSSC[C@@H]3NC(=O)[C@H](C)NC(=O)[C@H](Cc4ccccc4)NC(=O)[C@H](C)NC(=O)[C@H]([C@@H](C)O)NC(=O)[C@H](CSSC[C@H](NC(=O)[C@H](Cc4ccccc4)NC(=O)[C@H](CO)NC(=O)[C@H](CC(C)C)NC(=O)[C@H](CCCNC(=N)N)NC(=O)[C@H](Cc4ccc(O)cc4)NC(=O)[C@H](CCCCN)NC(=O)[C@H](CCSC)NC(=O)[C@H](CO)NC(=O)[C@H](Cc4cnc[nH]4)NC(=O)[C@H](CCCCN)NC3=O)C(=O)N[C@@H](CCCNC(=N)N)C(=O)N[C@@H](CCCCN)C(=O)N[C@@H]([C@@H](C)O)C(=O)N2)NC(=O)[C@H](CCCNC(=N)N)NC(=O)[C@H](CO)NC(=O)[C@H](CCCCN)NC(=O)[C@@H]2CCCN2C(=O)[C@H]([C@@H](C)CC)NC(=O)[C@H]([C@@H](C)O)NC(=O)[C@H](CC(=O)O)NC1=O [[Ala16]ShK],–,–,0.196 nM
